# Molecular target: Urokinase-type plasminogen activator (Homo sapiens, UniProt P00749)
# Experiment: In vitro inhibition of HWMT human urokinase Plasminogen activator.
row,Ki [µM],Compound
1,4.83,NC(N)=Nc1ncc(Cl)cc1Br
2,6.7,N=C(N)Nc1ccc(Cl)cc1

# Source: ChEMBL document CHEMBL1136034, “Selective urokinase-type plasminogen activator (uPA) inhibitors. Part 1: 2-Pyridinylguanidines” (Bioorg Med Chem Lett, 2002)
